# Antibody variant affinities, Ab-14 light chain, assay 1

Target peptide (SARS-CoV-2 spike, HR2 region): PDVDLGDISGINAS

Each scFv is VH, three GGGGS repeats, VL, as in the parent Ab-14, and differs from it in the CDRs of the light chain only.
VH: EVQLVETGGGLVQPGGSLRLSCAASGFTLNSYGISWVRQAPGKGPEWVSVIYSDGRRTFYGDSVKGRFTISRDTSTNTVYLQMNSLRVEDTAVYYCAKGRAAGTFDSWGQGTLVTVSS
VL: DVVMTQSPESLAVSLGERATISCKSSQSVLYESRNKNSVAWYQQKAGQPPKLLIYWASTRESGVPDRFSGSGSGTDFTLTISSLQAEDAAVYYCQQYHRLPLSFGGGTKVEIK

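The starting antibody came from a phage panning campaign against this peptide. AAYL50 was designed without a model: most single CDR substitutions and a random sample of double and triple ones. Affinity was read by AlphaSeq, a pooled yeast mating assay with surface-displayed partners. After mating in shaken culture at 30 °C for 16 h, diploids were selected and their barcode pairs sequenced. The ratio of observed to expected reads was calibrated, replicate by replicate, on BCL2-family standards whose Kd was known from biolayer interferometry. The assay was run in three technical replicates.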

Positions count from residue 1 of the parent VL; K24Q puts Q in place of K.
This list gathers variants with a substitution at L30 (VL, numbered from residue 1).
Each Kd is an estimate from the mating assay, the geometric mean of the replicates in which the pair was seen; lower is stronger.
"nd" marks a missing value. The strain was present, yet no cells mated with the target were sequenced in any replicate, which points to weak or no binding.
For reference, the parent read 4.4 nM as the reference entry and 48 nM as a member of this library.
Nonspecific signal, from three strains lacking the peptide, appeared in 18% of pairings of library AAYL50, centred on 15 µM (5% of these signals below 970 nM); values are not corrected for it.

Variant K24Q+L30F+N37R gave 370 nM (3 of 3 replicates). For L30R+S38Q+E61I, the assay gave 300 nM (2 of 3 replicates). For S28M+L30I+K36A, the assay gave 47 nM (3 of 3 replicates). With L30G+H98Q the result was 2.9 nM (3 of 3 replicates). Variant L30C+V39F+E61S showed 3.9 µM (1 of 3 replicates). With L30C+K36L+L100M the result was 87 µM (1 of 3 replicates). Variant S28W+L30W+V39T showed nd (0 of 3 replicates). For L30C+Q96W, the assay gave 250 nM (3 of 3 replicates).

Variant L30N+N37D+V39A gave nd (0 of 3 replicates). Variant L30F+R60G+P101F showed nd (0 of 3 replicates). For L30P+E32W, the assay gave 140 nM (3 of 3 replicates). With V29S+L30M+Y31D the result was 120 nM (3 of 3 replicates). For L30A+Q95L+R99T, the assay gave 1.6 µM (3 of 3 replicates). Variant L30P+A40W+R60H gave nd (0 of 3 replicates). With L30A+S33C+R60P the result was 25 µM (3 of 3 replicates). Variant L30Q+R60C+S103F gave 13 µM (3 of 3 replicates).

With L30A+E32Q+Q95E the result was 180 nM (3 of 3 replicates). Variant S26F+S28A+L30S gave 9.6 nM (3 of 3 replicates). Variant L30A+H98G gave 3.9 µM (2 of 3 replicates). For Q27F+L30Q+Y31H, the assay gave 12 nM (3 of 3 replicates). With K24Q+L30F+K36N the result was 17 nM (3 of 3 replicates). With L30M+A57M+S103V the result was 280 nM (3 of 3 replicates). Variant L30Y+N37S+L100P gave 11 µM (1 of 3 replicates). Variant K24P+L30C+A40H showed nd (0 of 3 replicates).

Variant L30G+Y31R+L100E gave 37 nM (3 of 3 replicates). Variant L30G+S38C+S103F showed 27 µM (3 of 3 replicates). Variant K24P+L30G showed 14 µM (3 of 3 replicates). For V29M+L30M+Y31T, the assay gave 4.4 nM (3 of 3 replicates). Variant S26L+L30Q+T59A gave 110 nM (3 of 3 replicates). With L30M+A40N+Q96Y the result was 2.7 µM (1 of 3 replicates). Variant S28I+L30S+Y97Q gave nd (0 of 3 replicates). For L30H+W56A+R60P, the assay gave 3.5 nM (3 of 3 replicates).

Variant L30P+S62C+Y97W gave 30 nM (3 of 3 replicates). For L30D+Y31H+H98F, the assay gave 20 nM (3 of 3 replicates). Variant L30A+A57L+Y97I showed nd (0 of 3 replicates). Variant K24P+L30M+P101I showed nd (0 of 3 replicates). Variant L30A+A57M gave 98 nM (3 of 3 replicates). For L30F+N37M+T59E, the assay gave nd (0 of 3 replicates). Variant L30Y+Q96E showed 10 nM (3 of 3 replicates). Variant L30F+N37T+A57I showed 16 µM (3 of 3 replicates).

Variant L30F+N35G showed 160 nM (1 of 3 replicates). With L30P+S58V+Y97S the result was nd (0 of 3 replicates). Variant L30S+A57V gave 29 nM (3 of 3 replicates). Variant S25H+V29S+L30R showed nd (0 of 3 replicates).

Top 6 of the variants detected in all replicates, tightest first:

Variant L30G+H98Q showed 2.9 nM (3 of 3 replicates).
Variant L30H+W56A+R60P showed 3.5 nM (3 of 3 replicates).
Variant V29M+L30M+Y31T showed 4.4 nM (3 of 3 replicates).
Variant S26F+S28A+L30S showed 9.6 nM (3 of 3 replicates).
Variant L30Y+Q96E showed 10 nM (3 of 3 replicates).
Variant Q27F+L30Q+Y31H showed 12 nM (3 of 3 replicates).

Reference: Engelhart et al. 2022, doi:10.1038/s41597-022-01779-4. File: FLAb, binding data.